# Experimental data from patent US20090099157A1, “TETRAHYDRO-PYRAZOLO-PYRIDINE THIOETHER MODULATORS OF CATHEPSIN S” (priority 2007, published 2009).
# The chains behind the UniProt entries cited, without tags or fusion partners. Residues count along the entry.
# UniProt P25774, 115-331: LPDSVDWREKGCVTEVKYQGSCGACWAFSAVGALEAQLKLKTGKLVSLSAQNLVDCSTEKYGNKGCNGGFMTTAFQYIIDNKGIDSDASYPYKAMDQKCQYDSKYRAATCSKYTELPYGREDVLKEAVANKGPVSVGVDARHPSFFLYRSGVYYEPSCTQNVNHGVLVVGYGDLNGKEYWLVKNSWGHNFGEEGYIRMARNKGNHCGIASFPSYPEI
# Target: Recombinant human cathepsin S (CatS) (Homo sapiens, UniProt P25774)
# Test: biochemical
row,Compound,IC50 [nM]
1,"CS(=O)(=O)N1CCc2c(c(-c3ccc(C(F)(F)F)c(SCC(=O)N4CCC[C@@H]4C(N)=O)c3)nn2CCCN2CCC(N3CCCC3=O)CC2)C1 [Example 108, (R)-1-{2-[5-(5-Methanesulfonyl-1-{3-[4-(2-oxo-pyrrolidin-1-yl)-piperidin-1-yl]-propyl}-4,5,6,7-tetrahydro-1H-pyrazolo[4,3-c]pyridin-3-yl)-2-trifluoromethyl-phenylsulfanyl]-acetyl}-pyrrolidine-2-carboxylic acid amide]",90
2,"CS(=O)(=O)N1CCc2c(c(-c3ccc(C(F)(F)F)c(SCC(=O)NC4Cc5ccccc5C4)c3)nn2CC(O)CN2CCC(N3CCCC3=O)CC2)C1 (stereo not shown) [Example 69, 2-[5-(1-{2-Hydroxy-3-[4-(2-oxo-pyrrolidin-1-yl)-piperidin-1-yl]-propyl}-5-methanesulfonyl-4,5,6,7-tetrahydro-1H-pyrazolo[4,3-c]pyridin-3-yl)-2-trifluoromethyl-phenylsulfanyl]-N-indan-2-yl-acetamide]",2900
3,"CNC(=O)N1CCc2c(c(-c3ccc(C(F)(F)F)c(SCCN4CCC(F)CC4)c3)nn2C[C@@H](O)CN2CCCCC2)C1 [Example 252, 3-[3-{[2-(4-Fluoropiperidin-1-yl)ethyl]sulfanyl}-4-(trifluoromethyl)phenyl]-1-[(2S)-2-hydroxy-3-piperidin-1-ylpropyl]-N-methyl-1,4,6,7-tetrahydro-5H-pyrazolo[4,3-c]pyridine-5-carboxamide]",590
4,"OC(CN1CCN(c2ccccc2)CC1)Cn1nc(-c2ccc(C(F)(F)F)c(SCCN3CCC(F)(F)C3)c2)c2c1CCNC2 (stereo not shown) [Example 417, 1-{3-[3-{[2-(3,3-Difluoropyrrolidin-1-yl)ethyl]sulfanyl}-4-(trifluoromethyl)phenyl]-4,5,6,7-tetrahydro-1H-pyrazolo[4,3-c]pyridin-1-yl}-3-(4-phenylpiperazin-1-yl)propan-2-ol]",560
5,"CC(C)(C)OC(=O)N1CCC(CC(=O)N2CCc3c(c(-c4ccc(C(F)(F)F)c(SCCN5CCOCC5)c4)nn3CC(O)CN3CCCCC3)C2)CC1 (stereo not shown) [Example 869, 1,1-Dimethylethyl 4-{2-[1-(2-hydroxy-3-piperidin-1-ylpropyl)-3-{3-[(2-morpholin-4-ylethyl)sulfanyl]-4-(trifluoromethyl)phenyl}-1,4,6,7-tetrahydro-5H-pyrazolo[4,3-c]pyridin-5-yl]-2-oxoethyl}piperidine-1-carboxylate]",1870
6,"CS(=O)(=O)N1CCc2c(c(-c3ccc(C(F)(F)F)c(SCCN4CCOCC4)c3)nn2CC(O)CN2CCCCC2)C1 (stereo not shown) [Example 174, 1-[5-(Methylsulfonyl)-3-{3-[(2-morpholin-4-ylethyl)sulfanyl]-4-(trifluoromethyl)phenyl}-4,5,6,7-tetrahydro-1H-pyrazolo[4,3-c]pyridin-1-yl]-3-piperidin-1-ylpropan-2-ol]",400
7,"CS(=O)(=O)N1CCc2c(c(-c3ccc(C(F)(F)F)c(SCCN4CCOCC4)c3)nn2CC(O)CN2CCC3CCCCC3C2)C1 (stereo not shown) [Example 595, 1-[5-(Methylsulfonyl)-3-{3-[(2-morpholin-4-ylethyl)sulfanyl]-4-(trifluoromethyl)phenyl}-4,5,6,7-tetrahydro-1H-pyrazolo[4,3-c]pyridin-1-yl]-3-(octahydroisoquinolin-2(1H)-yl)propan-2-ol]",410
8,"CS(=O)(=O)N1CCc2c(c(-c3ccc(C(F)(F)F)c(SCCN4CCCCC4)c3)nn2CC(O)CN2CCC(NC(N)=O)CC2)C1 (stereo not shown) [Example 600, 1-(1-{2-Hydroxy-3-[5-(methylsulfonyl)-3-{3-[(2-piperidin-1-ylethyl)sulfanyl]-4-(trifluoromethyl)phenyl}-4,5,6,7-tetrahydro-1H-pyrazolo[4,3-c]pyridin-1-yl]propyl}piperidin-4-yl)urea]",30
9,"O=C(C1CCCNC1)N1CCc2c(c(-c3ccc(C(F)(F)F)c(SCCN4CCC(F)CC4)c3)nn2CC(O)CN2CCCCC2)C1 (stereo not shown) [Example 584, 1-{3-[3-{[2-(4-Fluoropiperidin-1-yl)ethyl]sulfanyl}-4-(trifluoromethyl)phenyl]-5-(piperidin-3-ylcarbonyl)-4,5,6,7-tetrahydro-1H-pyrazolo[4,3-c]pyridin-1-yl}-3-piperidin-1-ylpropan-2-ol]",1240
10,"CS(=O)(=O)N1CCc2c(c(-c3ccc(C(F)(F)F)c(SCCN4CCCCC4)c3)nn2CC(O)CN2CCN(c3ccccc3)CC2)C1 (stereo not shown) [Example 659, 1-[5-(Methylsulfonyl)-3-{3-[(2-piperidin-1-ylethyl)sulfanyl]-4-(trifluoromethyl)phenyl}-4,5,6,7-tetrahydro-1H-pyrazolo[4,3-c]pyridin-1-yl]-3-(4-phenylpiperazin-1-yl)propan-2-ol]",35
11,"CS(=O)(=O)N1CCc2c(c(-c3ccc(C(F)(F)F)c(SCCN)c3)nn2CC(O)CN2CCC(N3CCCC3=O)CC2)C1 (stereo not shown) [Example 62, 1-[1-(3-{3-[3-(2-Amino-ethylsulfanyl)-4-trifluoromethyl-phenyl]-5-methanesulfonyl-4,5,6,7-tetrahydro-pyrazolo[4,3-c]pyridin-1-yl}-2-hydroxy-propyl)-piperidin-4-yl]-pyrrolidin-2-one]",220
12,"CS(=O)(=O)NCCSc1cc(-c2nn(CC(O)CN3CCC(Oc4ncccn4)CC3)c3c2CN(S(C)(=O)=O)CC3)ccc1C(F)(F)F (stereo not shown) [Example 768, N-[2-({5-[1-{2-Hydroxy-3-[4-(pyrimidin-2-yloxy)piperidin-1-yl]propyl}-5-(methylsulfonyl)-4,5,6,7-tetrahydro-1H-pyrazolo[4,3-c]pyridin-3-yl]-2-(trifluoromethyl)phenyl}sulfanyl)ethyl]methanesulfonamide]",95
13,"CS(=O)(=O)N1CCc2c(c(-c3ccc(C(F)(F)F)c(SCCN4CCC(F)CC4)c3)nn2CC(O)CN2CCC(Oc3ncccn3)CC2)C1 (stereo not shown) [Example 798, 1-{3-[3-{[2-(4-Fluoropiperidin-1-yl)ethyl]sulfanyl}-4-(trifluoromethyl)phenyl]-5-(methylsulfonyl)-4,5,6,7-tetrahydro-1H-pyrazolo[4,3-c]pyridin-1-yl}-3-[4-(pyrimidin-2-yloxy)piperidin-1-yl]propan-2-ol]",45
14,"CS(=O)(=O)N1CCc2c(c(-c3ccc(C(F)(F)F)c(SCCN4CCOCC4)c3)nn2CC(O)CN2CCC(N3CCOCC3)CC2)C1 (stereo not shown) [Example 691, 1-[5-(Methylsulfonyl)-3-{3-[(2-morpholin-4-ylethyl)sulfanyl]-4-(trifluoromethyl)phenyl}-4,5,6,7-tetrahydro-1H-pyrazolo[4,3-c]pyridin-1-yl]-3-(4-morpholin-4-ylpiperidin-1-yl)propan-2-ol]",270
15,"CCCNCCSc1cc(-c2nn(CCCN3CCN(C4CC4)CC3)c3c2CN(S(C)(=O)=O)CC3)ccc1C(F)(F)F [Example 342, N-(2-{[5-{1-[3-(4-Cyclopropylpiperazin-1-yl)propyl]-5-(methylsulfonyl)-4,5,6,7-tetrahydro-1H-pyrazolo[4,3-c]pyridin-3-yl}-2-(trifluoromethyl)phenyl]sulfanyl}ethyl)propan-1-amine]",440
16,"CS(=O)(=O)N1CCc2c(c(-c3ccc(C(F)(F)F)c(SCCN4CCCC(CO)C4)c3)nn2CC(O)CN2CCCC2)C1 (stereo not shown) [Example 388, 1-{3-[3-({2-[3-(Hydroxymethyl)piperidin-1-yl]ethyl}sulfanyl)-4-(trifluoromethyl)phenyl]-5-(methylsulfonyl)-4,5,6,7-tetrahydro-1H-pyrazolo[4,3-c]pyridin-1-yl}-3-pyrrolidin-1-ylpropan-2-ol]",580
17,"CS(=O)(=O)N1CCc2c(c(-c3ccc(C(F)(F)F)c(SCCN4CCC(C(N)=O)CC4)c3)nn2C[C@@H](O)CN2CCOCC2)C1 [Example 226, 1-(2-{[5-{1-[(2S)-2-Hydroxy-3-morpholin-4-ylpropyl]-5-(methylsulfonyl)-4,5,6,7-tetrahydro-1H-pyrazolo[4,3-c]pyridin-3-yl}-2-(trifluoromethyl)phenyl]sulfanyl}ethyl)piperidine-4-carboxamide]",920
18,"CN(C)C(=O)CSc1cc(-c2nn(CCCN3CCC(N4CCCC4=O)CC3)c3c2CN(S(C)(=O)=O)CC3)ccc1C(F)(F)F [Example 85, 2-[5-(5-Methanesulfonyl-1-{3-[4-(2-oxo-pyrrolidin-1-yl)-piperidin-1-yl]-propyl}-4,5,6,7-tetrahydro-1H-pyrazolo[4,3-c]pyridin-3-yl)-2-trifluoromethyl-phenylsulfanyl]-N,N-dimethyl-acetamide]",520
19,"CS(=O)(=O)NC1CCN(CC(O)Cn2nc(-c3ccc(C(F)(F)F)c(SCC(=O)N4CCOCC4)c3)c3c2CCN(C(=O)CO)C3)CC1 (stereo not shown) [Example 694, N-(1-{2-Hydroxy-3-[5-(hydroxyacetyl)-3-{3-[(2-morpholin-4-yl-2-oxoethyl)sulfanyl]-4-(trifluoromethyl)phenyl}-4,5,6,7-tetrahydro-1H-pyrazolo[4,3-c]pyridin-1-yl]propyl}piperidin-4-yl)methanesulfonamide]",85
20,"COC1CCN(CC(O)Cn2nc(-c3ccc(C(F)(F)F)c(SCCN4CCOCC4)c3)c3c2CCN(S(C)(=O)=O)C3)CC1 (stereo not shown) [Example 469, 1-[4-(Methyloxy)piperidin-1-yl]-3-[5-(methylsulfonyl)-3-{3-[(2-morpholin-4-ylethyl)sulfanyl]-4-(trifluoromethyl)phenyl}-4,5,6,7-tetrahydro-1H-pyrazolo[4,3-c]pyridin-1-yl]propan-2-ol]",480
21,"CS(=O)(=O)NC1CCN(CC(O)Cn2nc(-c3ccc(C(F)(F)F)c(SCCN4CCCC(O)C4)c3)c3c2CCN(C(=O)CO)C3)CC1 (stereo not shown) [Example 700, N-[1-(2-Hydroxy-3-{5-(hydroxyacetyl)-3-[3-{[2-(3-hydroxypiperidin-1-yl)ethyl]sulfanyl}-4-(trifluoromethyl)phenyl]-4,5,6,7-tetrahydro-1H-pyrazolo[4,3-c]pyridin-1-yl}propyl)piperidin-4-yl]methanesulfonamide]",150
22,"CS(=O)(=O)N1CCc2c(c(-c3ccc(C(F)(F)F)c(SCCN4CCCC(CO)C4)c3)nn2CC(O)CN2CCC(C(=O)N3CCCC3)CC2)C1 (stereo not shown) [Example 158, 1-{3-[3-({2-[3-(Hydroxymethyl)piperidin-1-yl]ethyl}sulfanyl)-4-(trifluoromethyl)phenyl]-5-(methylsulfonyl)-4,5,6,7-tetrahydro-1H-pyrazolo[4,3-c]pyridin-1-yl}-3-[4-(pyrrolidin-1-ylcarbonyl)piperidin-1-yl]propan-2-ol]",170
